From patent US7459455B2, “Pyrimidine compounds” (SmithKline Beecham Corporation, priority 2002, dated 2008)

The chains behind the UniProt entries cited, without tags or fusion partners. Residues count along the entry.
UniProt Q02763, 770-1124 limits assumed: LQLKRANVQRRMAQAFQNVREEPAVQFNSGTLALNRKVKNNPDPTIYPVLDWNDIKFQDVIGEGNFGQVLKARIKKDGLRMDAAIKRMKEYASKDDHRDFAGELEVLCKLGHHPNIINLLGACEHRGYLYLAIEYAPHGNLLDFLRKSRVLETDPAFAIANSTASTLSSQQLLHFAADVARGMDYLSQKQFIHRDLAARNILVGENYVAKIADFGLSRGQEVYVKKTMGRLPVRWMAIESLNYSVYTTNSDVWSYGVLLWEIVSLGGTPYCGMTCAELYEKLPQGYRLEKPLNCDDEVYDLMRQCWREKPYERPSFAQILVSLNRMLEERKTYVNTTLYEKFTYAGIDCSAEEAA
UniProt P35968, 786-1356 limits assumed: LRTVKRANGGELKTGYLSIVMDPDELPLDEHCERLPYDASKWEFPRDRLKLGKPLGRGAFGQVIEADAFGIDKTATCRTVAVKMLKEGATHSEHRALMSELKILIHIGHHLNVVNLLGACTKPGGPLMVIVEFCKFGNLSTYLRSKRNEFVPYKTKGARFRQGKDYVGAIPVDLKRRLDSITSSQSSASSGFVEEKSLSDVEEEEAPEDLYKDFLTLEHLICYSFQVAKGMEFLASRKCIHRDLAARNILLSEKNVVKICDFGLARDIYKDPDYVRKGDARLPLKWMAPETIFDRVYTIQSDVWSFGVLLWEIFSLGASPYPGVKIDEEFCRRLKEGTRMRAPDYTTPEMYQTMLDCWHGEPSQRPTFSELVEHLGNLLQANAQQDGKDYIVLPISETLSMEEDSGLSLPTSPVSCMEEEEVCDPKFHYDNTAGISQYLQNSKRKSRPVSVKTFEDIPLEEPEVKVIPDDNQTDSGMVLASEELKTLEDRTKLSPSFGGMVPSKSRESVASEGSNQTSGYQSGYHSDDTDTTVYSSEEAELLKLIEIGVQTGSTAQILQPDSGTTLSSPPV

Legend:
Recombinant GST-Tie2 = Recombinant GST-Tie2 (Homo sapiens, UniProt Q02763); assay: Tie2 Fluorescence Polarization Kinase Activity Assay (TIE2-FP); conditions: activated Tie2, 200 μM ATP
Procedure: Tie2 Fluorescence Polarization Kinase Activity Assay: (TIE2-FP)
Activation of Recombinant Tie2 Activation:
Recombinant GST-Tie2 was activated by incubating the enzyme in 20 mM Tris-HCl, pH 7.5, 12 mM MgCl2, 100 mM NaCl, 20 μM sodium vanidate, 1 mM DT and 300 μM ATP at room temperature for 2 hours. The activation mixture was then passed through a NAP-25 desalting column (Pharmacia Biotech cat. no. 17-0852-O2) to remove the free ATP. The activated enzyme was stored as aliquots at −80° C. in 20 mM Tris-HCl, pH 7.5 and 100 mM NaCl.
The final assay conditions were 50 mM HEPES, pH 7.5, 5% DMSO (when screening compounds), 200 μM ATP, 5 mM MgCl2, 1 mM DTT, 50 μM sodium vanidate, 1 nM activated enzyme, and 200 μM peptide. IC50's of compounds were measured under subsaturating ATP (200 μM) and varing concentrations of activated Tie2 and peptide substrate (RFWKYEFWR-OH; MW 1873 Da, TFA salt). Panvera Anti-phosphotyrosine antibody (Cat#P2840) and PTK Green Tracer (Cat#P2842) were used to detect the phosphorylated peptide. Polarization was measured on a TECAN Polarion in 138-second cycles for 30 minutes at room temperature. IC50's were then determined from the % polarization using normal calculation methods.

GST-VEGFR2 = GST-VEGFR2 (Homo sapiens, UniProt P35968); assay: VEGF-R2 Enzyme Assay (VEGF-E), LANCE method; conditions: GST-VEGFR2, 75 μM ATP, peptide phosphorylation
Description: VEGF-R2 Enzyme Assay VEGF-E)
The VEGF enzyme assay used the LANCE method (Wallac) and GST-VEGFR2, baculovirus expressed recombinant constructs of the intracellular domains of human TIE2 tagged by GST. The method measured the ability of the purified enzymes to catalyse the transfer of the γ-phosphate from ATP onto tyrosine residues in a biotinylated synthetic peptide, (biotin-aminohexyl-EEEEYFELVAKKKK-NH2). This peptide phosphorylation was detected using the following procedure: GST-VEGFR2 was incubated for 40-60 mins at room temperature with 75 μM ATP, 5 mM MgCl2, 0.1 mM DTT, 0.1 mg/mL BSA and the test compound (diluted from a 10 mM stock in DMSO for desired concentration) in 100 mM HEPES buffer. The reaction was stopped by the addition of EDTA (final concentration 50 mM). Streptavidin linked-APC (allophycocyanin, Molecular Probe) and Europium-labeled anti-phosphorylated tyrosile antibody (Wallac) were then added at the final concentration of 15 nM and 1 nM, respectively. The APC signal was measured using an ARVO multilabel counter (Wallac Berthold, Japan). The percent inhibition of activity was calculated relative to blank control wells. The concentration of test compound that inhibits 50% of activity (IC50) was interpolated using nonlinear regression (Levernberg-Marquardt) and the equation, γ=Vmax (1−x/(K+x))+Y2, where “K” was equal to the IC50. […]

[1] = system: Human umbilical cord endothelial cells (HUVEC); assay: VEGF-Driven Cellular Proliferation Assay: BrdU Incorporation Assay (VEGF-C)
Procedure: VEGF-Driven Cellular Proliferation Assay: BrdU Incorporation Assay (VEGF-C)
Human umbilical cord endothelial cells (HUVEC, Clonetics, CC2519) were passaged in Type I collagen-coated 100-mm petridishes in EGM-MV medium (Clonetics, CC3125) at 37 C in a humidified 5% CO2, 95% air incubator. (HUVEC passaged more than 6 times in vitro were discarded and not subjected to assaying.) The cells were harvested using trypsin/EDTA, counted using a haemocytometer and plated at 5000 cells/well in a Type I-collagen coated 96-well plate (Becton Dickinson, 354407) in M199 medium (Gibco BRL, 12340-030) containing 5% FBS (Hyclone, A 1115-L) and gentamicin (at 50 ug/ml, Gibco BRL). After incubation overnight at 37° C., the media were replaced with 100 ul of M199 serum-free medium containing compounds at various concentrations with 0.6% DMSO and gentamicin. The compounds were diluted in serum-free M199 medium from 10 mM stock solutions prepared in 100% DMSO. […] The incorporation of BrdU into the proliferating HUVEC were analyzed using BrdU Cell Proliferation ELISA (Roche Molecular Biochemicals, 1647229) according to the manufacturer's protocols. The optical density at 450 nm was measured with a multilabel counter (ARVO SX, Wallac). The percent inhibition of cell growth was calculated relative to blank control wells. […]

CN(c1ccc(NC(=O)Nc2cccc(Cl)c2)cc1)c1ccnc(Nc2ccc(S(N)(=O)=O)cc2)n1
+++ (+++ = pIC50 of >7.0): TIE2-FP (Recombinant GST-Tie2) | VEGF-E (GST-VEGFR2) | VEGF-C [1]
